pIC50: −log10 of the molar value.

The chains behind the UniProt entries cited, without tags or fusion partners.
UniProt Q92769, whole entry: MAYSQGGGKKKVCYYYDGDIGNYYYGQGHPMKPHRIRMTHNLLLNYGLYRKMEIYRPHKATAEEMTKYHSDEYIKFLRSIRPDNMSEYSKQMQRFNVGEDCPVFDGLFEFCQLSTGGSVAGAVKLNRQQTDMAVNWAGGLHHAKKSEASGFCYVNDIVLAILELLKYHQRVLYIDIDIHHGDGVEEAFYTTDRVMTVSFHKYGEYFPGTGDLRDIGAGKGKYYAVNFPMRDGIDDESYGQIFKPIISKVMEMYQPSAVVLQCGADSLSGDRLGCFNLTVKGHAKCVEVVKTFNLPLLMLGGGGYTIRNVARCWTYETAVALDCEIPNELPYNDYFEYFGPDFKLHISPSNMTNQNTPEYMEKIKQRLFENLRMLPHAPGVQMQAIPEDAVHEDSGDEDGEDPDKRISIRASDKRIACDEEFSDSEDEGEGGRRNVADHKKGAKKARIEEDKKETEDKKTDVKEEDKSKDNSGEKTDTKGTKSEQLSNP
UniProt Q13547, whole entry: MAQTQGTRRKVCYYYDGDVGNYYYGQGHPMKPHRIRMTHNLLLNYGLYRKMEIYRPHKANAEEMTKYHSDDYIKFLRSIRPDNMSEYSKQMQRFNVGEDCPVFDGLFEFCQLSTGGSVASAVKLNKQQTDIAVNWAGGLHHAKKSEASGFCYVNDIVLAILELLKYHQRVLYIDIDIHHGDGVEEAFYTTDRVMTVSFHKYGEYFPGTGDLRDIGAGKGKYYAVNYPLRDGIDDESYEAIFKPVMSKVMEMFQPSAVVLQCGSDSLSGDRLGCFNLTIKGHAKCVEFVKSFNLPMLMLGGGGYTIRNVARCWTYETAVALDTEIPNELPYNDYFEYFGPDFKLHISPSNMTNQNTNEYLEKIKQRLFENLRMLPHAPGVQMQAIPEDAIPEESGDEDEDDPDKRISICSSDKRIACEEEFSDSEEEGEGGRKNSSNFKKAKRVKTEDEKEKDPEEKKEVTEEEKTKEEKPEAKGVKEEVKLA

As a reminder, the pIC50 is the IC50 on a negative log10 scale, so that one unit is a factor of ten.

Assay [1] concerns the target T1, Histone deacetylase 2 (Homo sapiens, UniProt Q92769).
In assay [2] the target is T1, Histone deacetylase 2. The source holds these as a separate data set.
For assay [3], the target named is T1, Histone deacetylase 2. The source holds these as a separate data set.
In assay [4] the target is T2, Histone deacetylase 1 (Homo sapiens, UniProt Q13547). In words: Inhibition of human recombinant HDAC1 using Boc-L-Lys (Ac)-AMC as substrate preincubated with compound for 5 mins measured after 35 mins by spectrofluorometric analysis.
In assay [5] the target is T2, Histone deacetylase 1. In words: Inhibition of human recombinant HDAC1 using Boc-L-Lys (Ac)-AMC as substrate preincubated with compound for 3 hrs measured after 35 mins by spectrofluorometric analysis.

For the molecule `[N-]=[N+]=Nc1ccc(C(=O)Nc2cc(-c3cccs3)ccc2N)cc1`, the values for the pIC50 at Histone deacetylase 2 [1] and on Histone deacetylase 2 [2] were 5.49 and 6.16, respectively.
With `[N-]=[N+]=NCc1cc(COC(=O)NCc2ccc(C(=O)Nc3cc(-c4ccccc4)ccc3N)cc2)cc(N=[N+]=[N-])c1`, the values for the pIC50 at Histone deacetylase 2 [1], against Histone deacetylase 2 [3] and on Histone deacetylase 2 [2] were 5.15, 6.46 and 5.96, respectively.
Consider `[N-]=[N+]=Nc1ccc(C(=O)Nc2cc(-c3ccccc3)ccc2N)cc1`, for which the pIC50 is 5.29 on Histone deacetylase 2 [1] and 5.98 against Histone deacetylase 2 [2].
For the molecule `Nc1ccc(-c2ccccc2)cc1NC(=O)c1ccc(CNC(=O)OCc2ccccc2)cc1`, the pIC50 is 4.42 at Histone deacetylase 2 [1]; 6.13 at Histone deacetylase 2 [3]; 4.85 against Histone deacetylase 2 [2]; 4.84 on Histone deacetylase 1 [4]; 5.73 at Histone deacetylase 1 [5].
The corresponding values for `[N-]=[N+]=NCc1cc(COC(=O)NCc2ccc(C(=O)Nc3cc(-c4cccs4)ccc3N)cc2)cc(N=[N+]=[N-])c1` are 5.15, 6.52, 6.00, 5.55 and 5.92.

The values above are taken from ChEMBL document CHEMBL2057127, “Design, synthesis, modeling, biological evaluation and photoaffinity labeling studies of novel series of photoreactive benzamide probes for histone deacetylase 2” (Bioorg Med Chem Lett, 2012).
